Experimental data: patent publication US20090264470A1 (priority 2006, published 2009)

Assay: Acute administration: wet mash and food intake and 24 h body weight in lean male C57BL/6J mice
Assay type: in vivo, mouse
Conditions: dosed alone per the protocol; less than with the bupropion combinations
Experimental: The goal of this study was to investigate the effects of various ratios of bupropion:(R)-norfluoxetine on body weight and food and water intake in male C57BL/6J mice habituated to the daily presentation of a palatable wet mash diet. Rimonabant was used as a reference compound. Animals were maintained on normal-phase lighting. Test compounds were administered orally and measurements were made over the following 24 hours. All experiments included appropriate vehicle-treated control groups.
Sixty-two male C57BL/6J mice (weight range 20-25 g) were ordered from Harlan UK, Bicester, UK. The mice were individually housed in polypropylene cages at a temperature of 21±4° C. and 55%±20% humidity. […]
Typically an acute study was run each week with each study containing 60 animals. […] Animals were weighed and 2 h wet mash intake was calculated (to the nearest 0.1 g). […]
Drug administration occurred 60 minutes before the presentation of ‘wet mash’ which was at approximately 09:30 am. […] The mash was replaced with a fresh quantity of wet mash at the 4 hour time point. […] Wet mash was replaced with a known quantity of standard pellets at the 6 hour time point. […] Food and water intakes of the different groups of animals were measured concurrently. The animals were monitored at each reading and any overt drug-induced behavioural effects were recorded. […]

## NCC[C@@H](Oc1ccc(C(F)(F)F)cc1)c1ccccc1.O=C(O)C(O)C(O)C(=O)O [(R)-Norfluoxetine (D)-tartrate, (R)-norfluoxetine (D)-tartrate]
  effect on weight gain: reduction
  effect on wet mash intake: reduction
